Tested on: HBV
Assay: Compound 1 in combination with IFNα2a in chronic HBV infection mouse model (pAAV-HBV1.2 plus pKCMvint IFNα-2a or control plasmid)
Type: in vivo, C57BL/6J mice
Method: Chronic HBV infection mouse model was established using C57BL/6J mice (6 to 8 W, body weight 20 t 2 g) that were subjected to the high-pressure tail vein injection of a mixture of pAAV-HBV1.2 plasmid and pKCMvint IFNα-2a plasmid or pKCMvint control plasmid (6 μg/mouse), and expressed IFNα2a. One day after modeling, the mice were divided into 4 groups. Group A (0.9% saline injection group): pAAV-HBV1.2+pKCMvint+0.9%/NaCl; Group B (Compound 1 10 mg/kg intravenous injection group): pAAV-HBV1.2+pKCMvint+Compound 1 10 mg/kg; Group C (IFNα-2a group): pAAV-HBV1.2+pKCMvint IFNα-2a+0.9% NaCl; Group D (Compound 1 in combination with IFNα-2a group): pAAV-HBV1.2+pKCMvint IFNα-2a+APG 10 mg/kg. There were 5 mice in each group (except Group D that included 7 mice), the administration was performed for consecutive 3 times, i.e., on the day 1 after modeling, and on the days 7 and 14 after modeling; blood was collected once at orbital margin one day before the administration, and serum HBsAg/HBeAg levels were detected using Roche 601 instrument.

With “IFNα-2a: IFNα2a expressed in mice from pKCMvint IFNα-2a plasmid injected with pAAV-HBV1.2” the “serum HBeAg compared with Group A (saline)” value (days 7, 14, 21 (P 0.004 on 7th day, 0.021 on 7th day as printed, 0.001 on 21st day)) was “statistically significant differences” and the “serum HBsAg compared with Group A (saline)” value (days 7, 14, 21 (P 0.010, 0.008, 0.004), Compound 1 10 mg/kg i.v. days 1, 7, 14, IFNα-2a plasmid-expressed) was “statistically significant differences”.

— patent publication US11298339B2 (priority 2017, dated 2022)
